The results in this text go back to PubChem BioAssay AID485298 (National Center for Advancing Translational Sciences (NCATS), 2010).

The list shows a part of the results, in another mix than the full data. Some tests of the compounds listed are not included; inactive here does not mean inactive elsewhere. Calls of active or inactive are those of the source. Calls come from the whole dose curve; as a rule, active = well fitted activation curve with a large enough effect; inconclusive = small, poorly fitted or top-dose-only effect; inactive = no such curve, though single readings can be large or run the other way.

A short description of this assay: qHTS Assay for Small Molecule Inhibitors of Mitochondrial Division or Activators of Mitochondrial Fusion. Note: % of control where 0% means no effect; nearly all actives have a fitted effect of over 45% in size. Conditions: S. cerevisiae fusion-defective mutant growth rescue, CellTiterGlo 48 h; at 46.1 µM (top of the series). From the text: NIH Chemical Genomics Center [NCGC] NIH Molecular Libraries Probe Production centers Network [MLPCN] MLPCN Grant: MH081279-01 Assay Submitter (PI): Jodi M. Nunnari NCGC Assay Overview: The budding yeast S. cerevisiae is a powerful system to study mitochondrial fusion. Unlike other organisms, yeast cells without functional mitochondrial DNA (mtDNA) can be propagated and studied as long as they maintain a mitochondrial compartment and are provided with a fermentable carbon source. When mitochondrial fusion is blocked in yeast, mitochondrial tubules rapidly fragment and division continues unopposed. Under conditions where fusion is compromised in mammalian cells, nearly identical changes in mitochondrial structure have been observed. Thus, these findings indicate that steady state mitochondrial structure in cells is a characteristic and specific indicator of fusion activity. Mounting evidence has pointed to a connection between mitochondrial dynamics and apoptosis in mammalian cells. These studies indicate that in mammalian cells mitochondrial dynamics are more integrated into cellular processes than in yeast cells and have evolved not only to distribute the organelle but also to aid in the regulation of cellular homeostasis. Mitochondrial fusion proteins attenuate apoptosis by inhibiting the release of cytochrome c from mitochondria, in part by controlling cristae structures. Thus, small molecules that inhibit mitochondrial […] may promote apoptosis and potentially act as novel chemotherapeutics and stimulation of apoptosis has become an attractive target of anti-cancer therapies. To identify inhibitors of mitochondrial division, we exploit the growth phenotypes of mitochondrial fusion-defective mutants. The temperature sensitive fusion alleles, such as fzo1-1 and mgm1-5, cause mitochondrial membranes to fragment in cells under non-permissive conditions and cells lose mtDNA, and are unable to grow in the presence of non-fermentable carbon source glycerol. Inhibiting mitochondrial division rescues growth. We have developed and optimized a luminescence cell viability assay in 1536 well format for the identification of inhibitors in the yeast mitochondrial fusion-defective assay.
The yeast glycerol stocks where kindly supplied by the laboratory of Dr. Jodi Nunnari, University of California, Davis. All yeast glycerol stock solutions were stored in single use aliquots at -80C. The CellTiterGlo luminescence reagent, containing luciferase and luciferin, were purchased from Promega, and the reagents were stored according to manufacturer's instructions. The Buffer components for the YPEG yeast growth medium were purchased from Sigma-Aldrich (St. Louis, MO). YPEG growth medium: 1% (w/v) yeast extract, 2% (w/v) Bacto-peptone, 3% Ethanol, 3% glycerol, 0.4mM Tryptophan, 0.36mM Adenine. qHTS Assay Protocol: 1.#Dispense 2.5 ul yeast growth medium per 1536 well plate. 2.#Transfer 23 nl per well of compound to plate. 3.#Dispense 2.5 ul yeast solution at appropriate seeding density per well. 4.#Incubate for 48 hours at 37C. 5.#Dispense 5 ul of CellTiterGlow solution per well. 6.#Incubate at ambient for 10 minutes. 7.#Read using bio-luminescence protocol on Viewlux.
Background: Quantitative high-throughput screening tests each substance at several concentrations.
Consider `O=C(OC1CN2CCC1CC2)C(CO)(c1ccccc1)c1ccccc1` (stereo not drawn), for which the growth rescue (activation) was inactive: -4.68%.
The result for `CN(C)c1cccc(C(=O)NCC2(N(C)C)CCCCC2)c1` reads inactive: -2.26%; that for `COc1ccc(Br)c(C(=O)NCC2(N3CCCCC3)CCCCC2)c1`, inactive: -3.09%; that for `COc1cc(C(=O)NCC2(N(C)C)CCCCC2)c([N+](=O)[O-])cc1OC`, inactive: -11.8%.
The same measure for `CN(C)C1(CNC(=O)c2ccc(Br)cc2)CCCCC1`: inactive: 7.7%; for `O=C(NCC1(N2CCCCC2)CCCCC1)c1cccc(Cl)c1`: inactive: -7.63%; for `COc1ccc(Cl)cc1C(=O)NCC1(N(C)C)CCCCC1`: inactive: 0.457%.
With `COc1cccc(C(=O)NCC2(N3CCCCC3)CCCCC2)c1`, the growth rescue (activation) was inactive: -6.43%.
As for `CN(C)c1ccc(C(=O)NCC2(N(C)C)CCCCC2)cc1`, the growth rescue (activation) is inactive: 3.7%.
The same measure for `CN(C)C1CCCC1OC(=O)C(O)(c1ccccc1)c1ccccc1` (stereo not drawn): inactive: -1.04%; for `Cc1ccccc1C(=O)NCC1(N2CCCCC2)CCCCC1`: inactive: -1.46%; for `O=C(NCC1(N2CCCCC2)CCCCC1)c1cccc(Br)c1`: inactive: -4.23%.
The same measure for `CCN1CCCC(OC(=O)C2(O)c3ccccc3C=Cc3ccccc32)C1` (stereo not drawn): inactive: -9.22%; for `Cc1cc(C(=O)NCC2(N3CCCCC3)CCCCC2)ccc1[N+](=O)[O-]`: inactive: -0.333%.
Consider `COc1ccc(C(=O)NCC2(N(C)C)CCCCC2)cc1`, for which the growth rescue (activation) was inactive: 19.2%.
The same measure for `O=C(NCC1(N2CCCCC2)CCCCC1)c1cc(F)c(F)cc1Cl`: inactive: -5.82%.
The same measure for `C=CCN1CCN(CCOC(=O)C(O)(c2ccccc2)c2ccccc2)CC1`: inactive: -1.08%; for `CN1[C@@H]2CC[C@H]1CC(OC(=O)C(O)(c1ccccc1)c1ccccc1)C2` (stereo partly drawn): inactive: 1.73%; for `O=C(NCC1(N2CCCCC2)CCCCC1)c1cc([N+](=O)[O-])ccc1Cl`: inactive: 1.97%.
Regarding `Cc1ccc(C(=O)NCC2(N3CCCCC3)CCCCC2)cc1`, the growth rescue (activation) was inactive: 6.81%.
The same measure for `CC(C)N1C(=O)CC2(CCN(CCOC(=O)C(O)(c3ccccc3)c3ccccc3)CC2)C1=O`: inactive: -6.63%.
The result for `COc1cc(SC)ccc1C(=O)NCC1(N(C)C)CCCCC1` reads inactive: 2.7%; that for `CCN(CC)CC(C)C(C)OC(=O)C(O)(c1ccccc1)c1ccccc1` (stereo not drawn), inactive: 2.63%.
